# Values of other authors, collected in patent publication US20190282692A1, “SELECTIVE LOCAL INHIBITION OF TNFR1-MEDIATED FUNCTIONS AT THE SITE OF ANTIGEN/ALLERGEN PRESENTATION” (priority 2012, published 2019).
# Details: 45 mg CMS/kg/day in two divided doses, one to two weeks; cited from earlier work
substance,measurement,value
choline magnesium trisalicylate [CMS],"steady state serum salicylate level, mean value",213+10 mg/L
